This note sets out measurements from PubChem BioAssay AID1817 (Sanford-Burnham Center for Chemical Genomics, 2009).

Chains of the proteins cited; added tags and fusions are not shown.
UniProt Q8IUQ4, whole entry: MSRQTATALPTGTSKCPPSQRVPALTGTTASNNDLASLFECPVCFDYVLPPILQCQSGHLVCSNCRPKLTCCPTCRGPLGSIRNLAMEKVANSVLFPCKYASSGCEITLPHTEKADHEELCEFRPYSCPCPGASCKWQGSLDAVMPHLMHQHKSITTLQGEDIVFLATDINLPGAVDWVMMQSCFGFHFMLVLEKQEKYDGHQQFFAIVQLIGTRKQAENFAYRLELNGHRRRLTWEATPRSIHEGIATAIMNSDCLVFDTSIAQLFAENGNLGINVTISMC
UniProt Q15149, whole entry partner: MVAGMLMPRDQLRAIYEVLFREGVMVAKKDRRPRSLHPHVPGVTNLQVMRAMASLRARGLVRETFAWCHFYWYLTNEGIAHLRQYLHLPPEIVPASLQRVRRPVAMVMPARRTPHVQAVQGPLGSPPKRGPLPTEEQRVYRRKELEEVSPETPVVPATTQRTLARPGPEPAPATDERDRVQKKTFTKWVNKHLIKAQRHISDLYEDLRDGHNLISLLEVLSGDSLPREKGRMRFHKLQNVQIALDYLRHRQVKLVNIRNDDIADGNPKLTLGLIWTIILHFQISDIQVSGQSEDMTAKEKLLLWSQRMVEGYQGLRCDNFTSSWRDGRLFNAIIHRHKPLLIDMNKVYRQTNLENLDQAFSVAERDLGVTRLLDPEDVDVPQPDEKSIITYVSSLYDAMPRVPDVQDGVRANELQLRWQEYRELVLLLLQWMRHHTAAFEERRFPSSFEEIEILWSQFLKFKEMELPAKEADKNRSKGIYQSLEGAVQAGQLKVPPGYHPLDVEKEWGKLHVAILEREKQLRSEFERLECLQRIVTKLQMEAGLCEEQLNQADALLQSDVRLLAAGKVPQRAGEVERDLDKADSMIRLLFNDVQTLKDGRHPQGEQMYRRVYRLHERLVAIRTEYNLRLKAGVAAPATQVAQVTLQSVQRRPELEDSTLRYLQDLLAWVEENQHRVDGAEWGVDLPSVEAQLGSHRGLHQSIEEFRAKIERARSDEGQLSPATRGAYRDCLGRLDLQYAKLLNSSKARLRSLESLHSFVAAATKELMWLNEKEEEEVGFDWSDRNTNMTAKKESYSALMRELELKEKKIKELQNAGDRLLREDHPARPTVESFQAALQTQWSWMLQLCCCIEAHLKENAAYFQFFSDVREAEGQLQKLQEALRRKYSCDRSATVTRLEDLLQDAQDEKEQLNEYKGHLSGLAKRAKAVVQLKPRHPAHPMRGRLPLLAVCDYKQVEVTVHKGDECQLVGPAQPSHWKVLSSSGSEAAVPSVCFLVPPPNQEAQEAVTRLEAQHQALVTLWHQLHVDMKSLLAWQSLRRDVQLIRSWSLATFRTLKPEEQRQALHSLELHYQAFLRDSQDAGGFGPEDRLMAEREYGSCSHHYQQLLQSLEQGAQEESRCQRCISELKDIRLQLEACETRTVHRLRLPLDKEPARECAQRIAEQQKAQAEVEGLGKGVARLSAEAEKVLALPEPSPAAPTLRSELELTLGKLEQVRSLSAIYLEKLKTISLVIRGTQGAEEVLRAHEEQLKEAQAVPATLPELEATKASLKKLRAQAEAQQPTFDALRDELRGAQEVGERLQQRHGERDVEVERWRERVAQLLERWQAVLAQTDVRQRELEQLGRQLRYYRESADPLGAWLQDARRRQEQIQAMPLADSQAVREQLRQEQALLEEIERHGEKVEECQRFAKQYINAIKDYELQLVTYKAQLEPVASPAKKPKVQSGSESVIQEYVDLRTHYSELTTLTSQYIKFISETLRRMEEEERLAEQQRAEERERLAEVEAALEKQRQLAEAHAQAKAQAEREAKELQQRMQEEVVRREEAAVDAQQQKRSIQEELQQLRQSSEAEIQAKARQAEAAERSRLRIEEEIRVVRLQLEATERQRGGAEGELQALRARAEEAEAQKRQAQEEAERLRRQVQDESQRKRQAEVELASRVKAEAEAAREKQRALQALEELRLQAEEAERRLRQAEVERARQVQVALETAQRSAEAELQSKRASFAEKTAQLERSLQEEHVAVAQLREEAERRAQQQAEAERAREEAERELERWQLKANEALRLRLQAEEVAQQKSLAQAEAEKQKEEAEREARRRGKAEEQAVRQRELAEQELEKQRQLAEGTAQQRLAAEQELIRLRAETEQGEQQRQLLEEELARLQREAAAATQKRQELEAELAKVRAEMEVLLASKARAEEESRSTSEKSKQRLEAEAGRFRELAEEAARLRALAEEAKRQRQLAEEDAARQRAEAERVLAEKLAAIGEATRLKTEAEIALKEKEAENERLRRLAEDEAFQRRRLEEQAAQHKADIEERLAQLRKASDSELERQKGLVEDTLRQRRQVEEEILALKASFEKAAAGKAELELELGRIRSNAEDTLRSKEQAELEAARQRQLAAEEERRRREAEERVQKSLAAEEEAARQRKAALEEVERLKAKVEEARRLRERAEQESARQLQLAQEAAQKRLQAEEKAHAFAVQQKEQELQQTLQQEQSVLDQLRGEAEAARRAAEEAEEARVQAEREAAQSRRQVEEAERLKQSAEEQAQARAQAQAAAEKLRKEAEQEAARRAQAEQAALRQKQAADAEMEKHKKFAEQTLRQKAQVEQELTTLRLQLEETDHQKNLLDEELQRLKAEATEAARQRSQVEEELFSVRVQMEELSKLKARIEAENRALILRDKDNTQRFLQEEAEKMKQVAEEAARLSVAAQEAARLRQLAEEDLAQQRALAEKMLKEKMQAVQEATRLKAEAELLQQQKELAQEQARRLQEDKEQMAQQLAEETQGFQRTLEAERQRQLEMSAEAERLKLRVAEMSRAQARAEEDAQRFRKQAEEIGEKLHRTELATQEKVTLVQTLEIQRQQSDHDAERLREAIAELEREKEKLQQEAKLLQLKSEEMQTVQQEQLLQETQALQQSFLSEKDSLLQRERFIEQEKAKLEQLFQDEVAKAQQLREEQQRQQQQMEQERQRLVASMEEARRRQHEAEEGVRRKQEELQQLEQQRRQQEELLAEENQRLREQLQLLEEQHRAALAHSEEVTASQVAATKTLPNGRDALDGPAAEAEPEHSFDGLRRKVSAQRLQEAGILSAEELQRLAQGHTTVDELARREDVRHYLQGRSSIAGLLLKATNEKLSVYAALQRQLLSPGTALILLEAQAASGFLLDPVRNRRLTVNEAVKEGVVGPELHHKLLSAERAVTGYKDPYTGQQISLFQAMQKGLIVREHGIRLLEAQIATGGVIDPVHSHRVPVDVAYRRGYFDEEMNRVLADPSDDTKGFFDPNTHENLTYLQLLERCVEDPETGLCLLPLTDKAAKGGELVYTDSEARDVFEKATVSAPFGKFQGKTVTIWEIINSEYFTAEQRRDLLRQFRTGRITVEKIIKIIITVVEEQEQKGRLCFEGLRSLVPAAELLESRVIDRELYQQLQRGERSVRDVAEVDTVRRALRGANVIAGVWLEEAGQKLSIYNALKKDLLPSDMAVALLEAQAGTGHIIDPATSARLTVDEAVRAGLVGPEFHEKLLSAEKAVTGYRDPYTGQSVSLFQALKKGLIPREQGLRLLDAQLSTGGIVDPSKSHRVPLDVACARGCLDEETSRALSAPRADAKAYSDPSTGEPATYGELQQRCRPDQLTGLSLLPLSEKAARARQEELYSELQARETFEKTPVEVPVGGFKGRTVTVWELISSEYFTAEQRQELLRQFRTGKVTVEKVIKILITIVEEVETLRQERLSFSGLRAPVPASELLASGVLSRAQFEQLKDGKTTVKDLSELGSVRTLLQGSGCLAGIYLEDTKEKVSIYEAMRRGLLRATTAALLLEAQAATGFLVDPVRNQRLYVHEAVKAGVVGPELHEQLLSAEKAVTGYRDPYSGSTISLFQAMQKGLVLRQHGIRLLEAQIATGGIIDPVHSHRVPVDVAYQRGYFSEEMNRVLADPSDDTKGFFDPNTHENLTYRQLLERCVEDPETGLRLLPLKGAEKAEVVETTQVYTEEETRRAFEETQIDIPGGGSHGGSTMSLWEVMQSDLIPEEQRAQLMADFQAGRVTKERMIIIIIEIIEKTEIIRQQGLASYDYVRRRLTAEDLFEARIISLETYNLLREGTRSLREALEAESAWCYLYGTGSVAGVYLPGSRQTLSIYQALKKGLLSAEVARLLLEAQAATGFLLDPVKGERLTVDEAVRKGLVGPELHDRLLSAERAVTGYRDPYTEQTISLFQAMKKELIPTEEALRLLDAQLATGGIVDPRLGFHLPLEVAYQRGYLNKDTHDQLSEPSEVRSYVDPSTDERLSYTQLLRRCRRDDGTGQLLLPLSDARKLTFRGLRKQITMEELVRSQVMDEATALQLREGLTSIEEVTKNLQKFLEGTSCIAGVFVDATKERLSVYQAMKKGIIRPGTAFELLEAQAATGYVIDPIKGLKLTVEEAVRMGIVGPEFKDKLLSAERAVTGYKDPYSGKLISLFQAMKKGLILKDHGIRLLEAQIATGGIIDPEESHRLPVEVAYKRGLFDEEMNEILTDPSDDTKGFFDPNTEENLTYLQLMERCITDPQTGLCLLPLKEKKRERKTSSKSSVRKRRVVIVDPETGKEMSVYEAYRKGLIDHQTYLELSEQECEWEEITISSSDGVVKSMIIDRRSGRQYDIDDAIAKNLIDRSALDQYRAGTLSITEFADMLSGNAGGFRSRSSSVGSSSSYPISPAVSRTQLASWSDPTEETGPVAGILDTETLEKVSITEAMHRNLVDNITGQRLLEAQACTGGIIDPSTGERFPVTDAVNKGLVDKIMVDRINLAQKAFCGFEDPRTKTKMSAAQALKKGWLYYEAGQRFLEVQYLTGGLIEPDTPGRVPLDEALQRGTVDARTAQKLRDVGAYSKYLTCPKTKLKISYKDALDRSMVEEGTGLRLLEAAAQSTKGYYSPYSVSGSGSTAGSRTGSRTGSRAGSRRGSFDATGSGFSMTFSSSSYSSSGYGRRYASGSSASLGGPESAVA

Each structure is given as a SMILES string. This is a selection; strong and weak results do not stand in their true shares. Entries with a potency or affinity are not part of this list. Activity calls are given as the source filed them.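 The calls were made as follows: active = displacement of at least 50% at 20 µM, with a fluorescence ratio check between 0.3 and a set limit; inactive = the rest.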

This experiment deals with E3 ubiquitin-protein ligase SIAH1 (Homo sapiens) (UniProt Q8IUQ4). The experiment is described as follows: blockers of Siah-1 interaction with plectin peptide – biochemical, fluorescence polarization, rhodamine-plectin, uHTS, primary screen (AID 1817).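 Also: plate controls were Siah plus tracer with DMSO for no effect and tracer alone without Siah for full effect.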 To be noted: Siah-1 / rhodamine-plectin peptide fluorescence polarization; at 20 µM; hits give high values.
For `CCOc1ccc(C)cc1CN(CCCl)CCCl`, the displacement is inactive: 5.5%. To `O=C(NCC1(N2CCCCC2)CCCCC1)c1ccc(F)cc1` belongs inactive: 5.6%; to `CCOC(=O)N1CCC(Nc2ccc(F)cc2)CC1`, inactive: -0.2%. Consider `COc1ccc(NC2CCN(CCc3ccccc3)CC2)c(OC)c1`, for which the displacement is inactive: 4.6%.

Consider `CCOC(=O)N1CCC(Nc2cccc(C)c2)CC1`, for which the displacement was inactive: 11.4%.

With `COc1cc(C(=O)NCC2(N(C)C)CCCCC2)ccc1OC(F)F`, the displacement was inactive: -4.3%.

Regarding `Cc1ccc(OCC(C)C)c(CN(CCCl)CCCl)c1`, the displacement is inactive: -5.2%. Take `COc1ccc(C(=O)NCC2(N3CCCCC3)CCCCC2)cc1`: the displacement is inactive: 2.1%. On to `CC(C)(C)OC(=O)N1CCC(N(C(=O)c2ccccc2)c2ccc(F)cc2)CC1`, for which the displacement was inactive: 0.3%. Take `COc1ccc(C(=O)NCC2(N3CCCCC3)CCCCC2)c(OC)c1OC`: the displacement is inactive: -1.9%. Consider `O=C(NCC1(N2CCCCC2)CCCCC1)c1ccc(=O)[nH]c1`, for which the displacement was inactive: -1.1%. As to `CSc1ccccc1C(=O)NCC1(N2CCCCC2)CCCCC1`, the displacement is inactive: -3.1%. `Cc1cc(C)cc(N(C(=O)c2ccccc2)C2CCN(C(=O)OC(C)(C)C)CC2)c1`: the displacement is inactive: -4.3%. Take `O=C(NCC1(N2CCOCC2)CCCCC1)c1cc2ccccc2o1`: the displacement was inactive: 3.2%. `N#CC1(Nc2ccccc2)CCN(Cc2ccccc2)CC1`: the displacement is inactive: -3.5%. For `O=C(OC1CN2CCC1CC2)C1c2ccccc2Oc2ccccc21` (centres undefined), the displacement was inactive: -5.8%. With `CCOC(=O)N1CCC(Nc2ccc(OC)cc2)CC1`, the displacement was inactive: 2.6%. As for `CC(C)c1ccc(NC2CCN(C(=O)OC(C)(C)C)CC2)cc1`, the displacement is inactive: -6.7%. For `COc1ccc(CN(CCCl)CCCl)cc1Cl`, the displacement was inactive: 1.3%.

Turning to `CN(C)c1cccc(C(=O)NCC2(N3CCCCC3)CCCCC2)c1`, the displacement is inactive: 12.4%. On to `COc1cc(OC)c(C(=O)NCC2(N(C)C)CCCCC2)cc1OC`, for which the displacement was inactive: -0.3%. To `CCCOc1ccc(C(=O)NCC2(N(C)C)CCCCC2)cc1OC` belongs inactive: -6.2%; to `O=C(NCC1(N2CCCCC2)CCCCC1)c1ccc(OC(F)F)cc1`, inactive: -6.9%; to `CCN1CCC(Nc2ccc(Cl)cc2)CC1`, inactive: 8.4%. For `N#CC1(Nc2ccccc2)CCN(CCc2ccccc2)CC1`, the displacement was inactive: 0.5%. As to `O=C(NCC1(N2CCCCC2)CCCCC1)c1cccc([N+](=O)[O-])c1`, the displacement was inactive: 2.9%. In the case of `O=C(NCC1(N2CCCCC2)CCCCC1)c1cccc(C(F)(F)F)c1`, the displacement is inactive: 0%. As to `O=C(NCC1(N2CCOCC2)CCCCC1)c1cc(=O)[nH]c2ccccc12`, the displacement is inactive: -2.1%. Take `COc1cc(C(=O)NCC2(N3CCCCC3)CCCCC2)ccc1OC(F)F`: the displacement was inactive: 2.9%. Consider `COc1ccc(NC2CCN(C(=O)OC(C)(C)C)CC2)cc1`, for which the displacement is inactive: -11.9%.

In the case of `CN1CCN(CCOC(=O)C(O)(c2ccccc2)c2ccccc2)CC1`, the displacement was inactive: 5.9%. With `N#Cc1ccc(C(=O)NCC2(N3CCCCC3)CCCCC2)cc1`, the displacement was inactive: -6.2%. On to `CC(C)(C)OC(=O)N1CCC(N(C(=O)c2ccccc2)c2ccc(Cl)cc2)CC1`, for which the displacement was inactive: 3.6%. For `CN(C)C1(CNC(=O)c2cccc(C#N)c2)CCCCC1`, the displacement is inactive: 0.3%. `c1ccc(CN2CCC(Nc3ccccc3)CC2)cc1`: the displacement is inactive: 1.8%. On to `CCCN1CCC(Nc2cc(OC)cc(OC)c2)CC1`, for which the displacement was inactive: 0.1%.

With `COc1ccc(C(=O)NCC2(N3CCOCC3)CCCCC2)cc1OC`, the displacement was inactive: 6.1%. In the case of `CCOC(=O)N1CCC(Nc2ccc(C)cc2)CC1`, the displacement is inactive: 4.6%. In the case of `N/C(=N\O)c1c(N)no[n+]1[O-]`, the displacement is inactive: 1.8%. Take `O=C(OC1CN2CCC1CC2)C1c2ccccc2C=Cc2ccccc21` (centres undefined): the displacement is inactive: 4.2%. In the case of `CCOc1ncccc1C(=O)NCC1(N2CCOCC2)CCCCC1`, the displacement is inactive: -3.6%.

On to `CN1CCC(Nc2ccc(F)c(Cl)c2)CC1`, for which the displacement is inactive: 4.6%. As to `CC(C)(C)OC(=O)N1CCC(Nc2ccccc2)CC1`, the displacement is inactive: -2.2%. To `O=C(O)C1(Nc2ccccc2)CCN(Cc2ccccc2)CC1` belongs inactive: 2.6%. To `CCCOc1ccc(C(=O)NCC2(N(C)C)CCCCC2)cc1` belongs inactive: 2.4%; to `COc1cccc(C(=O)N(c2cc(C)cc(C)c2)C2CCN(C(=O)OC(C)(C)C)CC2)c1`, inactive: 4.2%; to `COc1cc(OC)cc(C(=O)NCC2(N3CCOCC3)CCCCC2)c1`, inactive: 3.9%. In the case of `CCC(CO)(C(=O)OC1CN2CCC1CC2)c1ccccc1` (centres undefined), the displacement was inactive: -3.2%.

On to `CN1CCC(Nc2ccc(Cl)cc2)CC1`, for which the displacement was inactive: 6.1%. Consider `CCCOc1ccc(C)cc1CN(CCCl)CCCl`, for which the displacement is inactive: -5.9%. Consider `COc1cc(OC)cc(C(=O)NCC2(N3CCCCC3)CCCCC2)c1`, for which the displacement was inactive: -5.5%. `Fc1ccccc1NC1CCN(Cc2ccccc2)CC1`: the displacement is inactive: -0.8%. Consider `CCN1CCC(Nc2cccc(F)c2)CC1`, for which the displacement was inactive: 6.5%. As for `CN(C)c1ccc(C(=O)NCC2(N3CCCCC3)CCCCC2)cc1`, the displacement is inactive: 5.5%.
